Reference: patent publication US8461328B2, “Tricyclic heterocyclic compounds, compositions and methods of use thereof” (Genentech, Inc., priority 2010, dated 2013)
Like-named read-outs stand apart in the source and are kept apart here.

Protein sequences, listed by entry. Tags and fused reporters are not part of them. Residues count along the entry.
UniProt P23458, 852-1154: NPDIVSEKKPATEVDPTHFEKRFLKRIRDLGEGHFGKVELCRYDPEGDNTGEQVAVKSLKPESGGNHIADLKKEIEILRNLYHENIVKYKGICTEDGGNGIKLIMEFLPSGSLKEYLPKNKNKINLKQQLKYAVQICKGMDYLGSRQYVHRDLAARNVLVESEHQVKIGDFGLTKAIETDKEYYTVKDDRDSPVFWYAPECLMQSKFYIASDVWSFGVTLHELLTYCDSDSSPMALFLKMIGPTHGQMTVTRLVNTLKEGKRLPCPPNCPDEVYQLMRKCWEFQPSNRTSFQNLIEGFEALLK
UniProt O60674, 812-1132: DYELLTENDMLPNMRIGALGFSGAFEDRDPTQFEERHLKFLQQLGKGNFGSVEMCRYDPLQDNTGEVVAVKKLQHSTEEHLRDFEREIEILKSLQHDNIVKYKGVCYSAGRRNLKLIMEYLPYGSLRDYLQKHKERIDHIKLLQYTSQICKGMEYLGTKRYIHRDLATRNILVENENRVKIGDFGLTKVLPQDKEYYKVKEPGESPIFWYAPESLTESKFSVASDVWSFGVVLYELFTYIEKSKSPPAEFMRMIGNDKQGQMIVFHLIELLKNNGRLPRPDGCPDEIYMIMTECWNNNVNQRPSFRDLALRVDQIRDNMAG
UniProt P52333, 783-1124: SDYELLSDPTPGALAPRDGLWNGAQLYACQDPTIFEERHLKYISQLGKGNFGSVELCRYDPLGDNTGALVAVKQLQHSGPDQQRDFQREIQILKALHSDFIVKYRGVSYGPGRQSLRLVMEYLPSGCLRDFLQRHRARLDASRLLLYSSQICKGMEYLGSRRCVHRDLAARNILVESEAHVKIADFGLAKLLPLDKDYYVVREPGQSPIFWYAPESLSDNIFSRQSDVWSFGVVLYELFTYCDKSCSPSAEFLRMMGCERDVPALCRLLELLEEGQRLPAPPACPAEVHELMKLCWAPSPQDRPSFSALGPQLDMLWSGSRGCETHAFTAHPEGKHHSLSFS

Assays:
Format in all cases: biochemical
JAK1 = target: T1, JAK1 (Homo sapiens, UniProt P23458); assay: JAK1 inhibition (Table 4)
T1 construct: made in house; host or cells: SF9 insect cells (baculovirus)

JAK2 = target: T2, JAK2 (Homo sapiens, UniProt O60674); assay: JAK2 inhibition (Table 4)
T2 construct: made in house; host or cells: SF9 insect cells (baculovirus)

JAK3 = target: T3, JAK3 (Homo sapiens, UniProt P52333); assay: JAK3 inhibition (Table 4)
T3 construct: made in house; host or cells: SF9 insect cells (baculovirus)

TYK2 = target: T4, TYK2 (Homo sapiens, UniProt P29597); assay: TYK2 inhibition (Table 4)
T4 construct: made in house; host or cells: SF9 insect cells (baculovirus)
T4 sequence (P29597 873-1187): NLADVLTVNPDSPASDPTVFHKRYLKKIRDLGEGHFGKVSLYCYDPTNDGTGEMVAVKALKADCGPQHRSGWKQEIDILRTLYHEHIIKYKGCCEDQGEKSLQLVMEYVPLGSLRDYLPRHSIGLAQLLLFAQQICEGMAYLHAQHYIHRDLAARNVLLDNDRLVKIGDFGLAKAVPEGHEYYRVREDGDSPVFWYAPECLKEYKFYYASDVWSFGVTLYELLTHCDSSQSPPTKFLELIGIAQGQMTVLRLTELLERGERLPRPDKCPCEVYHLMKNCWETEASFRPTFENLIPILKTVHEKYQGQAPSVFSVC

Compound | Ki (JAK1; read-out: JAK1 Ki) | Ki (JAK2; read-out: JAK2 Ki) | Ki (JAK3; read-out: JAK3 Ki) | Ki (TYK2; read-out: TYK2 Ki) | Ki (JAK1; JAK1 Ki) | Ki (JAK2; JAK2 Ki) | Ki (JAK3; JAK3 Ki) | Ki (TYK2; TYK2 Ki)
1-Cyclohexyl-2-methyl-1,6-dihydro-1,2,3,5,6-tetraaza-as-indacene-d11 [Example 673] | 0.69 nM | 3.24 nM | 3.96 nM | 2.15 nM | – | – | – | –
N[C@H]1CC[C@H](n2nnc3cnc4[nH]ccc4c32)CC1 [Example 279, 4-(6H-1,2,3,5,6-Pentaaza-as-indacen-1-yl)-cyclohexylamine] | – | 30.4 nM | – | 123 nM | 9.59 nM | – | – | –
N#CCCN[C@H]1CC[C@H](n2nnc3cnc4[nH]ccc4c32)CC1 [Example 280, 3-[4-(6H-1,2,3,5,6-Pentaaza-as-indacen-1-yl)-cyclohexylamino]-propionitrile] | – | – | – | 61.5 nM | 4.37 nM | 13.7 nM | – | –
Cc1nc2cnc3[nH]ccc3c2n1C1CCOCC1 [Example 540, 2-Methyl-1-(tetrahydro-pyran-4-yl)-1,6-dihydro-1,3,5,6-tetraaza-as-indacene] | – | – | – | – | – | – | 16.5 nM | 35.9 nM
O[C@H]1CC[C@H](n2nnc3cnc4[nH]ccc4c32)CC1 [Example 546, trans 4-(6H-1,2,3,5,6-Pentaaza-as-indacen-1-yl)-cyclohexanol] | – | 19.6 nM | – | 74.2 nM | 9.97 nM | – | – | –
CO[C@H]1CC[C@H](n2c([C@@H](C)O)nc3cnc4[nH]ccc4c32)CC1 [Example 635, Trans (R)-1-[1-(4-methoxy-cyclohexyl)-1,6-dihydro-1,2,3,5,6-tetraaza-as-indacen-2-yl]-ethanol] | – | 75.4 nM | – | 11.3 nM | 4.04 nM | – | – | –
C[C@@H](O)c1nc2cnc3[nH]ccc3c2n1[C@H]1CC[C@H](CCC#N)CC1 [Example 647, Trans 3-{4-[2-((R)-1-Hydroxy-ethyl)-6H-1,2,3,5,6-tetraaza-as-indacen-1-yl]-cyclohexyl}-propionitrile] | – | 3.8 nM | 7.71 nM | 1.64 nM | 0.34 nM | – | – | –
C[C@@H](O)c1nc2cnc3[nH]ccc3c2n1C1CCC(CCC#N)CC1 (stereo partly drawn) [Example 1007, 3-{4-[2-((R)-1-Hydroxy-ethyl)-6H-1,3,5,6-tetraaza-as-indacen-1-yl]-cyclohexyl}-propionitrile] | – | 19.7 nM | – | 11.5 nM | 8.25 nM | – | – | –
